One assay deals with PI3K γ (Homo sapiens (Human), UniProt P48736). The assay is described as follows: PI 3-Kinase (human) HTRF assay, p110γ. The class given is biochemical.
The target of the next assay is PI3K α (Homo sapiens (Human), UniProt P42336). The assay is described as follows: PI 3-Kinase (human) HTRF assay, p110α/p85α. It is filed as biochemical. Particulars: read-out: PI3K α IC50. A general note: In TR-FRET formats the signal depends on donor and acceptor labels being close together.
For the next assay, the target named is PI3K β (Homo sapiens (Human), UniProt P42338). The assay can be described thus: PI 3-Kinase (human) HTRF assay, p110β/p85α. The note with it: read-out: PI3K β IC50.
The target in another assay is PI3K δ (Homo sapiens (Human), UniProt O00329). The assay is described as follows: PI 3-Kinase (human) HTRF assay, p110δ/p85α. It is filed as biochemical.
The subject of the next assay is MDA-MB-361 cells. The assay can be described thus: MDA-MB-361 tumor cell proliferation. Particulars: read-out: PC3 proliferation; column headed PC3; starting with compound 438, proliferation data was obtained using an MDA-MB-361 cell line.

Protein sequences, listed by entry. Tags and fused reporters are not part of them. Lines headed by an entry give the natural chain unless they say otherwise; changes in a name come on top.
UniProt P48736, whole entry: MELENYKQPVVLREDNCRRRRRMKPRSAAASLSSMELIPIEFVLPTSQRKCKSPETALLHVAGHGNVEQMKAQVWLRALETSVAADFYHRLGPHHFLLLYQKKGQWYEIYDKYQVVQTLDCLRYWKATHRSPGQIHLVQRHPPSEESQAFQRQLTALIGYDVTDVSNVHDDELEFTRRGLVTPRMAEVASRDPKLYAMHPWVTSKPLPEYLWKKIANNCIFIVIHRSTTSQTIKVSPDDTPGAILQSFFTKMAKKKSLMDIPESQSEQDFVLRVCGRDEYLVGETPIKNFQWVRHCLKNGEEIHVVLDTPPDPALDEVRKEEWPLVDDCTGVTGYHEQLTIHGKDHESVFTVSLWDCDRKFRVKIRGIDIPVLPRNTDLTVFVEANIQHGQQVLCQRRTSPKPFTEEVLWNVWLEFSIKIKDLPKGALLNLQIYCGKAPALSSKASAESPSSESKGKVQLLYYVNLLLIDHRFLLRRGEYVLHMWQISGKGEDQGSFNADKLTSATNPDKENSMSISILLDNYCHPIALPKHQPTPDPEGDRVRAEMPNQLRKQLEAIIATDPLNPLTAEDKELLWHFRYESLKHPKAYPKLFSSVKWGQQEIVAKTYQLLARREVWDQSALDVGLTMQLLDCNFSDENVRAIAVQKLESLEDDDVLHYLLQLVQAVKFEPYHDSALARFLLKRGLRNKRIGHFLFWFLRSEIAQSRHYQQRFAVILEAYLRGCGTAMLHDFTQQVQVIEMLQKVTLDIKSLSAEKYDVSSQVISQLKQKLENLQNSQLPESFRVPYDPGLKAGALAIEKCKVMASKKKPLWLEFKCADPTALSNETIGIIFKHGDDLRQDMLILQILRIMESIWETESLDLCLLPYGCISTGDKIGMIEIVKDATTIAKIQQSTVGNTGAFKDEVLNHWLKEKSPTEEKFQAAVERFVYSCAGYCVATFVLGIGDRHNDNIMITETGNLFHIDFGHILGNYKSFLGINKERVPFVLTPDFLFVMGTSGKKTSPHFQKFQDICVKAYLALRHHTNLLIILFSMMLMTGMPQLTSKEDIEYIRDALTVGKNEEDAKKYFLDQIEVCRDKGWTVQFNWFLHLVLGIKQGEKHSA
UniProt P42336, whole entry: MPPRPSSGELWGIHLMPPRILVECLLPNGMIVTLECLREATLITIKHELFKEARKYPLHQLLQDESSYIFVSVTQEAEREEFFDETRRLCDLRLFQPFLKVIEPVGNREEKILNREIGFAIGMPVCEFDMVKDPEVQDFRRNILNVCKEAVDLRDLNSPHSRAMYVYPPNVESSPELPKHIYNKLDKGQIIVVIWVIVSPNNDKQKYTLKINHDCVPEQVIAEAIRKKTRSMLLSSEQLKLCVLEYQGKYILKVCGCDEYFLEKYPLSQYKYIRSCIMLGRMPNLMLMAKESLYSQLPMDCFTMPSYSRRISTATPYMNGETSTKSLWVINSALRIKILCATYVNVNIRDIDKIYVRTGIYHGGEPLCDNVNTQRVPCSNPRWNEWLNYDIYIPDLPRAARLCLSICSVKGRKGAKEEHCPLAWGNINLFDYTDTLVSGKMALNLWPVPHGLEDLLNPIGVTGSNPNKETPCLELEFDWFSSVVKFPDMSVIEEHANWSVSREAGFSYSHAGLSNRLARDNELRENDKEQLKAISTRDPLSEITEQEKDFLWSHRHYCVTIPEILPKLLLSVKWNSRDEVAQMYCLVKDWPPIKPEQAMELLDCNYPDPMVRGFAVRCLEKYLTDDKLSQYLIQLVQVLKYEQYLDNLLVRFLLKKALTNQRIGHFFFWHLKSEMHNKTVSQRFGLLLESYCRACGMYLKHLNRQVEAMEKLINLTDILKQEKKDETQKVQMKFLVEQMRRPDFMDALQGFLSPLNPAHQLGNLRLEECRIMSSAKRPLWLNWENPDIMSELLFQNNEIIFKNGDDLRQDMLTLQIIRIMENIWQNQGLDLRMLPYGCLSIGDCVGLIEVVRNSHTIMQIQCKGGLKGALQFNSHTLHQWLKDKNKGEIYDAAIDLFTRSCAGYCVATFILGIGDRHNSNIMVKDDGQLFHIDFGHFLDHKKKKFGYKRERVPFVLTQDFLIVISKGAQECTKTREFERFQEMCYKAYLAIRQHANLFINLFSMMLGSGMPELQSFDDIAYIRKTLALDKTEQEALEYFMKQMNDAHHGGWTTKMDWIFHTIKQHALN
UniProt P42338, whole entry: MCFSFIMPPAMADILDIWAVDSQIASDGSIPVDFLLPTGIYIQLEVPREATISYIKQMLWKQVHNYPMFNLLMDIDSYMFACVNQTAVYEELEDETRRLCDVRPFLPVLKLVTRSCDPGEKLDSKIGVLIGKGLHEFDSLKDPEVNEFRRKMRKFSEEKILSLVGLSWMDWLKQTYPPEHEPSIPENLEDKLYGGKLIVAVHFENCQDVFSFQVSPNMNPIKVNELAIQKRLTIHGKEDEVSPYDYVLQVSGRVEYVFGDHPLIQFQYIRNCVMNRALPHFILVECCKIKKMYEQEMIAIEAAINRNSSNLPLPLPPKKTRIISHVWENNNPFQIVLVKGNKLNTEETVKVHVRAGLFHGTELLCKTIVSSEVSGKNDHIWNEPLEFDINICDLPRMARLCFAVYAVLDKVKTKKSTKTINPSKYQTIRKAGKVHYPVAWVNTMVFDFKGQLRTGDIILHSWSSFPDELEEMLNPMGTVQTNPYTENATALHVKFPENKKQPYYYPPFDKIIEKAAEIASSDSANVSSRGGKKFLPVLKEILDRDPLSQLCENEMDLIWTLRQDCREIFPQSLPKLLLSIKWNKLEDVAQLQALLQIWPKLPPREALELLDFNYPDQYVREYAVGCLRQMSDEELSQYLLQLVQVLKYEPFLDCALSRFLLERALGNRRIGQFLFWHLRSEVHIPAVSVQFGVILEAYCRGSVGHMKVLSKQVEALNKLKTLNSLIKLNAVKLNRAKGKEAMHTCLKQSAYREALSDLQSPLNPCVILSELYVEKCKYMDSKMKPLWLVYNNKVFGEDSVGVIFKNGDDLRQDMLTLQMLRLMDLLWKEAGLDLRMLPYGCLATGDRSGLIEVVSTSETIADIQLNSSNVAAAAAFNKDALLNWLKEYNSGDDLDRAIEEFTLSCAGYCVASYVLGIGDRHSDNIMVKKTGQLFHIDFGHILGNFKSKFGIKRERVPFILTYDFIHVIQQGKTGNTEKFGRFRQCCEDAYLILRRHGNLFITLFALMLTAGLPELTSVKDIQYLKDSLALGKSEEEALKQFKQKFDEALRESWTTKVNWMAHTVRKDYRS
UniProt O00329, whole entry: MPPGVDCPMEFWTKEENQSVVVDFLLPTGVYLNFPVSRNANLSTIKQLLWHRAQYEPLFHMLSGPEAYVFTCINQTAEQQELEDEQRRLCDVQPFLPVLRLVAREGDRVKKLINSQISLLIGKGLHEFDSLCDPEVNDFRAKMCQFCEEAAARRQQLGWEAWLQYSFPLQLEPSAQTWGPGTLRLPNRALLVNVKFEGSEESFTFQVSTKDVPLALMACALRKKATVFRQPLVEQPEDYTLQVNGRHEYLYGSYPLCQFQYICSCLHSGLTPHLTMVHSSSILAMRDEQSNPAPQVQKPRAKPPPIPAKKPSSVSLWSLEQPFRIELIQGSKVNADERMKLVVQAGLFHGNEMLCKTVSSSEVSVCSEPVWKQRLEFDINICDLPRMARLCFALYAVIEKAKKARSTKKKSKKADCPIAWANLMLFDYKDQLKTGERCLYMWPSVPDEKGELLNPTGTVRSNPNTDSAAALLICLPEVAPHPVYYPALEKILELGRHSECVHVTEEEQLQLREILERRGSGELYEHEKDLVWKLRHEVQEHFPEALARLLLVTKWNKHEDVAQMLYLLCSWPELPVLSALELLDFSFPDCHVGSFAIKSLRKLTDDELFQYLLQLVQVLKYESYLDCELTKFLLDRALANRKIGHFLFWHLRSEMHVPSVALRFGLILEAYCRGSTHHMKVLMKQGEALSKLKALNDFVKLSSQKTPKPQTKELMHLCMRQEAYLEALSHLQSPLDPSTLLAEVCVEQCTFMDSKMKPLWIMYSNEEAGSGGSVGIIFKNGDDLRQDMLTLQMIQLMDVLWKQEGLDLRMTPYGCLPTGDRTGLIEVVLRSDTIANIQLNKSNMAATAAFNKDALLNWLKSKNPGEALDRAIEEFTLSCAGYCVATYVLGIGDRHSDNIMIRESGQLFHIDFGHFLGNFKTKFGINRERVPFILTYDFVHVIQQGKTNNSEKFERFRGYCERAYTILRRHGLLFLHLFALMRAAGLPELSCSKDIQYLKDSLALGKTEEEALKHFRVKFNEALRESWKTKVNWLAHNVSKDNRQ
UniProt P27986, whole entry partner: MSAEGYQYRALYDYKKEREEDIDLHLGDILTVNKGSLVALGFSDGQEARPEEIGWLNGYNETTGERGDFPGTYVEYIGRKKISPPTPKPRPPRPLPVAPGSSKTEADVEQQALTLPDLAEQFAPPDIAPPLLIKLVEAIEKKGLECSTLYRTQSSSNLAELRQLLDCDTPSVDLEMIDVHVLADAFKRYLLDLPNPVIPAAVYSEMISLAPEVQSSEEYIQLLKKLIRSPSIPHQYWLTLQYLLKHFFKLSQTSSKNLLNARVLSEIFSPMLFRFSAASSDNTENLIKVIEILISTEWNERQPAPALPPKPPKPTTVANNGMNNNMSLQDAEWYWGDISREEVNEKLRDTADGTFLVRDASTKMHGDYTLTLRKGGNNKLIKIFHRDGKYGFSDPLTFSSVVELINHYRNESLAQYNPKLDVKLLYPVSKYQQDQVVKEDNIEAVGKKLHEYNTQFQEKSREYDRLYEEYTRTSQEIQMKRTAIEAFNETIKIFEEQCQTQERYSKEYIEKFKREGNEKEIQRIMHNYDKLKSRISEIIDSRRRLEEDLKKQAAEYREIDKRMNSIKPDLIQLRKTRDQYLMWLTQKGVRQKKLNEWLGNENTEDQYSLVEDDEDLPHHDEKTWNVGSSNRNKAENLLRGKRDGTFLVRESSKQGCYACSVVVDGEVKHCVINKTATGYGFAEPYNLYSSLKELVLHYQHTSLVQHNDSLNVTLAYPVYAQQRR

Structures are written as SMILES. Where two headings read alike, the source gives them in different places.

As for `O=C(c1cnc2ccc(-c3ccc4[nH]nnc4c3)cn12)N1CCOCC1`, the IC50 on PI3K γ (read-out: PI3K δ IC50) was < 10 µM; on PI3K α, < 1 µM; at PI3K β, < 10 µM; on PI3K δ (read-out: PI3K γ IC50) it was < 10 µM.

On to `CS(=O)(=O)N1CCC(n2cnc3ccc(-c4ccc5oc(N)nc5c4)cc3c2=O)CC1`, for which the IC50 on PI3K γ (read-out: PI3K γ IC50) is > 10 µM; at PI3K α, < 1 µM; on PI3K δ (read-out: PI3K δ IC50), > 10 µM.

`CC(=O)Nc1cc2ccc(-c3cc(F)c4oc(N)nc4c3)cn2n1`: the IC50 is < 10 µM on PI3K γ (read-out: PI3K δ IC50), > 10 µM on PI3K α, > 10 µM at PI3K β and > 10 µM on PI3K δ (read-out: PI3K γ IC50).

With `CC1(C)CN(C2CN(C(=O)c3cnc4ccc(-c5ccc6oc(N)nc6c5)cn34)C2)CCN1`, the IC50 on PI3K γ (read-out: PI3K δ IC50) is < 1 µM; in the assay with MDA-MB-361 cells, < 1 µM; on PI3K α, < 0.1 µM; on PI3K β, < 10 µM; on PI3K δ (read-out: PI3K γ IC50), < 0.1 µM.

Source of the values: US9682141B2, “Combination of kinase inhibitors and uses thereof” (INTELLIKINE LLC, priority 2011, dated 2017).
